Reference: PMC8716319 (Toxicology, 2020)

Tested on: human liver microsomes
Experiment: Steady-state bioactivation kinetics: alpha-dicarbonyl
Conditions: alpha-dicarbonyl formation

higher Km compared to sudoxicam: four-fold
SMILES: Cc1cnc(NC(=O)C2=C(O)c3ccccc3S(=O)(=O)N2C)s1 [meloxicam]
